Reference: patent US20090118127A1 (Janssen / Centocor, published 2009)

Chains of the proteins cited; added tags and fusions are not shown. Residues count along the entry.
UniProt P01375, 77-233 limits assumed: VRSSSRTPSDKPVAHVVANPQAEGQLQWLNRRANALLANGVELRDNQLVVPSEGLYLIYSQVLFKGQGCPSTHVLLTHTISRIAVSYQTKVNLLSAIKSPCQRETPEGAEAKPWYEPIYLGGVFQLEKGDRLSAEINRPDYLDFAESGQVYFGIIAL

How the values were obtained:
[1] = biological target: T1, human tumor necrosis factor alpha (TNFα) (human, UniProt P01375 77-233); test: Biacore (SPR), 3 pairs of experiments
T1 construct: also called human TNFα

[2] = biological target: T1, human tumor necrosis factor alpha (TNFα); test: ELISA, human TNFα coated on the plate, bound antibody detected with HRP anti-human kappa
Description: Antibodies were assessed for binding to human TNFα using an ELISA format. Briefly, human TNFα was coated into the wells of a 96 well plate and candidate mAbs were incubated at various concentrations (20 to 0.2 ng/ml) and bound antibody was detected with HRP-labeled anti-human kappa light chain IgG (Jackson, ImmunoResearch, West Grove, Pa.).

B1: REMICADE® brand of infliximab (antibody, V domains shown)
VH: EVKLEESGGGLVQPGGSMKLSCVASGFIFSNHWMNWVRQSPEKGLEWVAEIRSKSINSATHYAESVKGRFTISRDDSKSAVYLQMTDLRTEDTGVYYCSRNYYGSTYDYWGQGTTLTVS
VL: DILLTQSPAILSVSPGERVSFSCRASQFVGSSIHWYQQRTNGSPRLLIKYASESMSGIPSRFSGSGSGTDFTLSINTVESEDIADYYCQQSHSWPFTFGSGTNLEVK
notes: also called cA2
- koff [1]: 9.68e-05 s⁻¹
- kon [1]: 547000 M⁻¹ s⁻¹
- EC50 (read off the curve) [2]: ~3 ng/mL
